# Laboratory results taken from patent US9102591B2, “Benzamides” (H. Lundbeck A/S, priority 2012, dated 2015).
# Sequences of proteins named here, by UniProt entry; tags and fusion partners are left off. A change or cut given only in a name is not applied to a line headed by its entry.
# UniProt Q99572: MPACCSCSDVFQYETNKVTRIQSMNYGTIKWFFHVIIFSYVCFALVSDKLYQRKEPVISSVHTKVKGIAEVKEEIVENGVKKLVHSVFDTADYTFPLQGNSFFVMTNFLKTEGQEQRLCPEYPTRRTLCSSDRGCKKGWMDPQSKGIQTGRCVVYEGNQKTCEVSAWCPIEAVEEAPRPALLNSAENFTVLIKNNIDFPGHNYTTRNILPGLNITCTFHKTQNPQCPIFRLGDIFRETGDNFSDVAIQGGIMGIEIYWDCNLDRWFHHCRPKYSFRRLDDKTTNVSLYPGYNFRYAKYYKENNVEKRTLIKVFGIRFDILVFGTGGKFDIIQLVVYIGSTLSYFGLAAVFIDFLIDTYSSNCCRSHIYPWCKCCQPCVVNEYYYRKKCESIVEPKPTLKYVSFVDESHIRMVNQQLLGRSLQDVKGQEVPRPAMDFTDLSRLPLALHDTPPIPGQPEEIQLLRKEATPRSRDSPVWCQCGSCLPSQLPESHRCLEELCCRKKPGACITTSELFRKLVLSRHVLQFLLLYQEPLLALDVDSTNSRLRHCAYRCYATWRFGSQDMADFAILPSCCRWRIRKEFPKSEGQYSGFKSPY
# Target: P2X7 receptor (Homo sapiens (Human), UniProt Q99572)
# Test: P2X7 FLIPR assay (BzATP-stimulated calcium fluorescence, antagonist IC50)
# Type: cell-based
# Experimental: This example illustrates representative assays for use in evaluating the test compounds for antagonist activity. Compounds of the present invention were tested in vitro for their ability to act as antagonists to the P2X7receptor. […]
# Cells were plated to cell density of approximately 15,000 cells/well in 384-well assay plates (50 μl/well) with 1.5% low serum media (DMEM, 1.5% FBS, 1% L-glut (2 mM), 10 mM HUES, 1% P/S). Cells were plated 24 hours prior to assay. Cells expressing human, rat or mouse P2X7 receptor were assayed in the following manner.
# Fluo-4 NW dye mix (Molecular Probes, Inc., Eugene, Oreg., USA) was prepared in buffer (see manufacturer's instructions). Cell plates were removed from the 37° C. incubator, the media discarded and then 30 μL of dye was added to each well. Plates were placed in the 37° C., non-CO2 incubator for 30 minutes and then room temperature for 30 minutes.
# Compound mixtures (A) were added to assay plates containing cells and placed at room temperature for 30 minutes, then BzATP (B) was added. Fluorescence was read using the Tetra FLIPR® (Molecular Devices, Inc., Sunnyvale, Calif., USA) and IC50 values were calculated by standard methods to determine antagonist activity.
row,SMILES,IC50 [nM]
1,"Cc1ncc(C(CNC(=O)c2cccc(Cl)c2Cl)CC2CC2)cn1 (single isomer, unassigned; (+)) [Example 4y, (+)-2,3-dichloro-N-(3-cyclopropyl-2-(2-methylpyrimidin-5-yl)propyl)benzamide]",260
2,"Cc1ncc(C(CNC(=O)c2cccc(Cl)c2Cl)CC2CC2)cn1 (centres unmarked) [2,3-dichloro-N-[3-cyclopropyl-2-(2-methylpyrimidin-5-yl)propyl]benzamide]",60
